Chains of the proteins cited; added tags and fusions are not shown. Residues count along the entry.
UniProt Q13526, whole entry: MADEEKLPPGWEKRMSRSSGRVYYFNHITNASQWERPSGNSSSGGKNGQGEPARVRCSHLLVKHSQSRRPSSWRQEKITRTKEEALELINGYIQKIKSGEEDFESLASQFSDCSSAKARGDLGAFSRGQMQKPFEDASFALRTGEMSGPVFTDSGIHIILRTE
UniProt Q13526, 52-163 limits assumed: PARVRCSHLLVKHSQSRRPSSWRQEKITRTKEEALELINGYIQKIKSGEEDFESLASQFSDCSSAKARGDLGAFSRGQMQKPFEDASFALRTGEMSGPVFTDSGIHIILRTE

According to patent US20210332024A1, “MODULATORS OF PIN1 ACTIVITY AND USES THEREOF” (Yeda Research and Development Co. Ltd., priority 2019, published 2021):

Experiments:
catalytic domain of Pin1 = catalytic domain of Pin1 (Homo sapiens, UniProt Q13526); experiment: Intact protein LC/MS labeling of Pin1; settings: 2 μM Pin1 with 2 μM test compound for 1 hour at room temperature
Method: 993 compounds were transferred to a 384-well plate working copy by combining 0.5 μl of 20 mM stock solution of four or five compounds per well. The catalytic domain of Pin1 (2 μM) in 20 mM Tris, 75 mM NaCl, pH 7.5 was incubated with 200 μM for each compound and moderately shaken for 24 hours at 4° C. The reaction was stopped by the addition of formic acid to 0.4% (v/v) final concentration.
Liquid chromatography/mass spectroscopy runs were performed on an Acquity™ UPLC® H-class system (Waters) in positive ion mode using electrospray ionization (ESI). UPLC separation was performed on a C4 column (300 Å, 1.7 μM, […]). The column was held at 40° C., and the autosampler at 10° C. […]
For the screening 2 μl of each of the 448 click products as 50 μM DMSO stocks were transferred into a 384-well plate working plate. […] The mixtures were analyzed by liquid chromatography/mass spectroscopy analogously to the electrophile library incubations described herein. Hits were retrospectively analyzed by liquid chromatography/mass spectroscopy (LC-MS) to ensure reaction completion.
For each measured well, processed peaks were searched to match the mass of unlabeled protein or common small adducts of the unlabeled protein, which were found in the control sample or labeled protein. […] Data was analyzed using a python script for processing the MaxEnt-deconvoluted spectra. […]

[1] = Thiol reactivity assay (DTNB); settings: 200 μM compound, pH 7.4, 37° C.
Method: 50 μM DTNB (dithionitrobenzoic acid) was incubated with 200 μM TCEP (tris(2-carboxytehyl)phosphine) in 20 mM sodium phosphate buffer (pH 7.4) with 150 mM NaCl, for 5 minutes at room temperature, in order to obtain TNB^2− (thionitrobenzoate dianion). 200 μM compounds were subsequently added to the TNB^2−, followed by immediate UV absorbance measurement at 412 nm (at 37° C.). The UV absorbance was acquired every 15 minutes for 7 hours. The assay was performed in a 384-well plate using a Spark™ 10M plate reader (Tecan). Background absorbance of compounds was subtracted by measuring the absorbance at 412 nm of each compound under the same conditions without DTNB. Compounds were measured in triplicates. The data was fitted to a second order reaction equation such that the rate constant k is the slope of ln([A][B0]/[B][A0]), where [A0] and [B0] are the initial concentrations of the compound (200 μM) and TNB^2− (100 μM) respectively, and [A] and [B] are the remaining concentrations as a function of time, as determined from the spectrometric measurement. Linear regression using Prism® software was performed to fit the rate against the first four hours of measurements. […]

GST-Pin1 = GST-Pin1 (Homo sapiens, UniProt Q13526); experiment: Fluorescence polarization (FP) competition assay; settings: read-out: Ki (apparent), competition with fluorescein-labeled peptide, 250 nM GST-Pin1
Method: Binding affinity to Pin1 was determined using a fluorescence polarization assay to assess competition with an N-terminal fluorescein-labeled peptide (Bth-D-phosThr-Pip-Nal), which was obtained from JPT Peptide Technologies and Proteintech Group. The indicated concentrations of candidate compound were pre-incubated for 12 hours at 4° C. with a solution containing 250 nM glutathione S-transferase (GST)-Pin1, 5 nM of fluorescein-labeled peptide probe, 10 μg/ml bovine serum albumin, 0.01% Tween-20 and 1 mM DTT (dithiothreitol) in a buffer of 10 mM HEPES, 10 mM NaCl and 1% glycerol (pH 7.4). Measurements of FP were performed in black 384-well plates (Corning) using an EnVision™ reader. Apparent Ki values (under the tested conditions) obtained from the FP assay results were derived from the Kenakin Ki equation:
Kenakin Ki=(Lb)(EC50)(Kd)/(Lo)(Ro)+Lb(Ro−Lo+Lb−Kd) […]
Covalent labeling of Pin1 was confirmed to translate into enzyme inhibition via a fluorescence polarization (FP) competition assay using a FITC-labeled substrate mimetic peptide inhibitor, as well as a chymotrypsin-coupled PPIase assay, using procedures described in Wei et al. [Nat Med 2015, 21:457-466]. […]

- Labeling [%] (catalytic domain of Pin1): 46%
- Ki (GST-Pin1): 411 nM
SMILES: O=C(CCl)N(CC1(C(F)(F)F)CC1)C1CCS(=O)(=O)C1 (stereo not shown)
- Reactivity Log k [1]: −6.47
- Reactivity k [1]: 3.42e-07 M⁻¹ s⁻¹
